{"source": "patent US20200375965A1", "about": "“Targeting Lipid Metabolism and Free Fatty Acid (FFA) Oxidation to Treat Diseases Mediated by Resident Memory T Cells (TRM)” (The Brigham and Women's Hospital, Inc., priority 2018, published 2020)", "test_system": "Fabp4 and Fabp5 gene expression in CD8+ TRM", "conditions": "treatment of mice with GW9662, 1 mg/kg intradermal injection", "data": [{"smiles": "O=C(Nc1ccccc1)c1cc([N+](=O)[O-])ccc1Cl", "note": "[GW9662]", "values": [{"measurement": "Fabp4 and Fabp5 gene expression in CD8+ TRM", "result": "inhibited"}]}]}
